Reference: patent US20060074073A1, “Therapeutic combinations comprising poly (ADP-ribose) polymerases inhibitor” (AGOURON PHARMACEUTICALS, INC., priority 2004, published 2006)

System: SW620 human colon carcinoma xenograft
Assay: In vivo antitumor efficacy with temozolomide, SW620 xenograft
Details: 10 mg/kg compound alone QD×5

Q: CNCc1ccc(-c2[nH]c3cc(F)cc4c3c2CCNC4=O)cc1 [compound of formula 1, 8-fluoro-2-{4-[(methylamino)methyl]phenyl}-1,3,4,5-tetrahydro-6H-azepino[5,4,3-cd]indol-6-one] was tested. Which tumor growth delay did it give?
A: no tumor growth delay
